Reference: US12435061B2 (priority 2020, dated 2025)

Amino acid sequences for entries named in this document (tags omitted).
UniProt Q8NET8, whole entry: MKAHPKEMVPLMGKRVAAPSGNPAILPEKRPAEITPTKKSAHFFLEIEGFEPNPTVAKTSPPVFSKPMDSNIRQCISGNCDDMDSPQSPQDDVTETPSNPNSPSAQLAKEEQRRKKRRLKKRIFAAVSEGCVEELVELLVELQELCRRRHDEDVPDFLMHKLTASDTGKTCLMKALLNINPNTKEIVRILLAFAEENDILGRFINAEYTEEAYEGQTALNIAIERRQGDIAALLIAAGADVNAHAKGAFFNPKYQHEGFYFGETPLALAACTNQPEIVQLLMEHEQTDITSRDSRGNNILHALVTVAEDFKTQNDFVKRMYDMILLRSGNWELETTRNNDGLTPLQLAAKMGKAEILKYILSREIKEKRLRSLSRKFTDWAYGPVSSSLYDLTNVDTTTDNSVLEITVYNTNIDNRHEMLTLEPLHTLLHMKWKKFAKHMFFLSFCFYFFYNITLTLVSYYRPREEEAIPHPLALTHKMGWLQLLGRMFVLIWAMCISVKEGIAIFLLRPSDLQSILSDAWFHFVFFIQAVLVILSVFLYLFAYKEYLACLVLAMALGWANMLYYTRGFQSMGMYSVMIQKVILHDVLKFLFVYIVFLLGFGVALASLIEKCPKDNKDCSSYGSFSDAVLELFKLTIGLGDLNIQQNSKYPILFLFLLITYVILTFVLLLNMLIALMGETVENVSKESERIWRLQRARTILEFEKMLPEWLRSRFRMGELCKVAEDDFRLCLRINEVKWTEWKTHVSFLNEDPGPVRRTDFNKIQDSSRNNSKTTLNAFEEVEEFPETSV

Key:
[1] = molecular target: T1, hTRPV3 (Homo sapiens (Human), UniProt Q8NET8); assay: Whole-cell patch clamp, hTRPV3 Phase 1 / Phase 2 currents; format: cell-based; details: Phase 1 current
[2] = molecular target: T1, hTRPV3; assay: FLIPR Assay (calcium flux, HEK293 cells stably expressing TRPV3); details: read-out: FLIPR IC50

SMILES	IC50 ([1]; read-out: hTRPV3 (nM) (Phase 1))	IC50 ([1]; read-out: hTRPV3 Patch P1 Inwd, inward, whole-cell patch clamp) [nM]	IC50 [2] [µM]
COCc1ccc(C(=O)c2ccc(N3CC[C@H](Oc4ncccc4Cl)C3)c(CCO)c2)cc1	3000	> 1000	
CCn1ccc(C(=O)N2CCC(c3ccc(-c4ccccc4C4CC4)cc3CO)C2)n1 (stereo not shown)			5.74
Cc1cnc(C(=O)N2CCC(c3ccc(-c4ccccc4C4CC4)cc3CO)C2)nc1 (stereo not shown)			4.6
O=C(c1nc(CO)cs1)N1CCC(c2ccc(-c3ccccc3C3CC3)cc2CO)C1 (stereo not shown)			> 10
COCc1cccc(C(=O)N2CCC(c3ccc(-c4ccccc4C4CC4)cc3CO)C2)n1 (stereo not shown) [KM-036]			0.66
CC(C)(O)c1ccnc(C(=O)N2CCC(c3ccc(-c4ccccc4C4CC4)cc3CO)C2)c1 (stereo not shown)			> 10
